Results: patent US7253194B2, “Compounds and inhibitors of phospholipases” (The University of Queensland, priority 2000, dated 2007)
pIC50: −log10 of the molar value.

Chains of the proteins cited; added tags and fusions are not shown. Residues count along the entry.
UniProt P14555, 21-144 limits assumed: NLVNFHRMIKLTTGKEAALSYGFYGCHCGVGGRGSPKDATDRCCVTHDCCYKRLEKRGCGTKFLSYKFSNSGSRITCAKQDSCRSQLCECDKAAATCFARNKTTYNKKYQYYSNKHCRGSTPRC

Target: human non-pancreatic sPLA2 (type IIa) (Homo sapiens, UniProt P14555)
Test: Assay for inhibition of human non-pancreatic sPLA2 (type IIa), mixed micelle colorimetric assay
Assay type: biochemical
Conditions: read-out: IC50, inhibition of human secretary PLA2; recombinant hIIa-PLA2; substrate diheptanoyl thio-phosphatidyl choline, DTNB detection; IC50 from Dixon plot extrapolation

O=C(O)CC[C@@H](Cc1ccc(OCc2cccnc2)cc1)NC(=O)CCCCCCc1ccccc1
pIC50: 6.61
